This experiment relates to bone marrow derived DCs. In words: IL-1β release from DCs (ELISA). The class given is cell-based, mouse. Conditions: LPS-primed, oxPAPC-treated. The protocol: NLRP3 KO and ASC KO mice were kindly provided by Dr. T. Horng, Harvard School of Public Health. Caspase-11 KO mice were kindly provided by Dr. Junying Yuan, Harvard Medical School. Caspase-1 single KO mice were kindly provided by Thirumala-Devi Kanneganti (St. Judes). DCs were differentiated from bone marrow in IMDM (Gibco), 10% B16-GM-CSF derived supernatant, 2 μM 2-mercaptoethanol and 10% FBS and used after 6 day of culture. […] MO were differentiated from bone marrow in DMEM (Gibco), 30% L929 supernatant, and 10% FBS. Immortal MΦs were cultured in DMEM supplemented with 10% L929 supernatant and 10% FBS. […]
RNA was isolated from cell cultures using Qiashedder (Qiagen) and GeneJET RNA Purification Kit (Life Technologies). Purified RNA was analyzed for gene expression on a CFX384 real time cycler (Bio-rad) using TaqMan RNA-to-CT 1-Step Kit (Applied Biosystems) with probes purchased from Life Technologies specific for viperin (Mm00491265_m1), IFNb1 (Mm00439552_s1), IL6 (Mm00446190_m1), caspase-1 (Mm00438023_m1), caspase-11 (Mm00432307_m1), Nlrp3 (Mm00840904_m1), Asc (Mm00445747_g1), TBP (Mm00446971_m1) or GAPDH (Mm99999915_g1). ELISA for IL-1β, IL-2, IL-17, IL-18, TNFα and IFNγ were performed using Mouse Ready-SET-Go ELISA kits (eBioscience). […] Cell associated cytokines were measured as follows: 96-well plates were centrifuged and supernatant was discarded. […]
Background: ELISA stands for enzyme-linked immunosorbent assay.

B1: recombinant IFNβ: Recombinant IFNβ from R&D Systems (protein, UniProt P01574 22-187, looked up)
Interferon beta: MSYNLLGFLQRSSNFQCQKLLWQLNGRLEYCLKDRMNFDIPEEIKQLQQFQKEDAALTIYEMLQNIFAIFRQDSSSTGWNETIVENLLANVYHQINHLKTVLEEKLEKEDFTRGKLMSSLHLKRYYGRILHYLKAKEYSHCAWTIVRVEILRNFYFINRLTGYLRN
B1: the “rescue of defect in IL-1β secretion in CD14 KO cells” value is reported as “could not be rescued”.

The record behind these values is patent publication US12053522B2, “Pro-inflammatory and anti-cancer functions of toll-like receptor 4 antagonists” (Children's Medical Center Corporation, priority 2015, dated 2024).
